The text below walks through data of patent publication US11866430B2, “Naphthyridinone compounds useful as T cell activators” (priority 2018, dated 2024).

By UniProt entry, the sequences of proteins in these tests, tags left out. Chains listed by the source or under a name are the forms on record and can include a tag or linker.
UniProt P23743, other isoform, or with tags, fused parts or gaps: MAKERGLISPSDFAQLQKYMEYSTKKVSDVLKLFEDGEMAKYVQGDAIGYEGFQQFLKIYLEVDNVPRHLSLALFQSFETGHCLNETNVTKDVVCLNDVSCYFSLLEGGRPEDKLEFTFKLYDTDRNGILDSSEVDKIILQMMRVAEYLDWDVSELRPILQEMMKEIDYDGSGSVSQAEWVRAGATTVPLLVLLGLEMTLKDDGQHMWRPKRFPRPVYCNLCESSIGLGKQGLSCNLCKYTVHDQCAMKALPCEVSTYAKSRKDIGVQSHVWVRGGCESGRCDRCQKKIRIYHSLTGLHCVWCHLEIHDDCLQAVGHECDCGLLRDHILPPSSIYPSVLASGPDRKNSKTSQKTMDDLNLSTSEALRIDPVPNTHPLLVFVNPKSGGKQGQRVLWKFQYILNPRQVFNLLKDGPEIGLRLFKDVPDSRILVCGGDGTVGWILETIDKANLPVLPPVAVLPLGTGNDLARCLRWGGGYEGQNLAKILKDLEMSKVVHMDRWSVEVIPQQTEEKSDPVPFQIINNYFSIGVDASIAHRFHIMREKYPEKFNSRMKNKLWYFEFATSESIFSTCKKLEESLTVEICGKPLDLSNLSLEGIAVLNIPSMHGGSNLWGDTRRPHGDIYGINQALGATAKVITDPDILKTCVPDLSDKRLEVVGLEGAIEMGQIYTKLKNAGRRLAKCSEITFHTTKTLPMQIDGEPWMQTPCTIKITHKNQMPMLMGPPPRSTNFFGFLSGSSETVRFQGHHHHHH

Experiment [1] has as its target T1, human DGKα (Homo sapiens (Human), UniProt P23743). As to the kind of experiment: biochemical. The class given is biochemical. The protocol: (§1) The DGKα and DGKζ reactions were performed using either extruded liposome (DGKα and DGKζ LIPGLO assays) or detergent/lipid micelle substrate (DGKα and DGKζ assays). The reactions were carried out in 50 mM MOPS pH 7.5, 100 mM NaCl, 10 mM MgCl2, 1 μM CaCl2, and 1 mM DTT (assay buffer). The reactions using a detergent/lipid micelle substrate also contained 50 mM octyl B-D-glucopyranoside. […] The lipid substrate concentrations were […], 0.25 mM DAG, and 2.75 mM PC for the extruded liposome reactions.
(§2) The compound inhibition studies were carried out as follows: 50 nL droplets of each test compound (top concentration 10 mM with 11 point, 3-fold dilution series for each compound) solubilized in DMSO were transferred to wells of a white 1536 well plate (Corning 3725). A 5 mL enzyme/substrate solution at 2× final reaction concentration was prepared by combining 2.5 mL 4× enzyme solution (20 nM DGKα or DGKζ (prepared as described below) in assay buffer) and 2.5 mL of either 4× liposome or 4× detergent/lipid micelle solution (compositions described below) and incubated at room temperature for 10 minutes. Next, 1 μL 2× enzyme/substrate solution was added to wells containing the test compound and reactions were initiated with the addition of 1 μL 300 uM ATP. […] Luminescence was recorded using an EnVision microplate reader. […] The compounds were evaluated at 11 concentrations to determine IC50. […]

In experiment [2] the test system is pre-activated CD4 T cells and Raji cells. In words: Raji CD4 T Cell IL2 Assay. The settings on record: Homo sapiens, read-out: RAJI IC50. Format: cell-based.
Experiment [3] addresses T1, human DGKα. In words: DGKα LIPGLO assay (extruded liposome substrate). The class given is biochemical. Here is the method: as §1, §2
The test system of experiment [4] is Jurkat AP1-luciferase Reporter. In words: DGK AP1-Reporter Assay. The settings on record: Homo sapiens, read-out: API-Luciferase Reporter IC50, Table 3. Format: cell-based. Here is the method: The Jurkat AP1-luciferase Reporter was generated using the Cignal Lenti AP1 Reporter (luc) Kit from SABiosciences (CLS-011L).
The sample size was 30 nl per well; and one destination plate per source plate. The cell suspensions were prepared by transferring 40 mL cells (2×20 mL) to clean 50 mL conical tubes. The cells were concentrated by centrifugation (1200 rpm; 5 mins; ambient temperature). […] The cell plates were incubated for 20 minutes at 37° C., and 5% CO2.
During the incubation, anti-CD3 antibody (αCD3) solutions were prepared by mixing 3 μl αCD3 (1.3 mg/mL) with 10 mL medium [final conc=0.4 μg/mL]. Next, 1.5 μl αCD3 (1.3 mg/mL) was mixed with 0.5 mL medium [final conc=4 μg/mL]. After 20 minutes, 10 μl medium was added to all wells in column 1, wells A to M, and 10 μl αCD3 (4 μg/mL) per well was added in column 1, rows N to P for reference. Then using a multi-channel pipette, 10 μl αCD3 (0.4 μg/mL) per well was added. The αCD3 stimulated +/− compound-treated cells were incubated at 37° C., 5% CO2 for 6 hours.
During this incubation period. Steady-Glo (Promega E2520) reagent was slowly thawed on to ambient temperature. Next, 20 μl Steady-Glo reagent per well was added using a multi-drop Combi-dispenser. […] Samples were characterized by measuring the Relative Light Units (RLU) with an using Envision Plate Reader Instrument on a luminescence protocol.
On the technique in general: A reporter such as luciferase makes a cellular process visible.

In experiment [5] the test system is OT-1 antigen-specific CD8+ T cells with MC38 tumor cells. In words: Murine Cytotoxic T Lymphocyte Assay (IFN-γ). Format: cell-based. To be noted: Mus musculus, MC-38, read-out: msCTL INF-γ IC50, murine CTL IFN-γ (table title reads INF-γ Whole Blood Normalized Agonist EC50). The source says:
An antigen-specific cytolytic T-cell (CTL) assay was developed to evaluate functionally the ability of DGKα and DGKζ inhibitors to enhance effector T cell mediated tumor cell killing activity. CD8+ T-cells isolated from the OT-1 transgenic mouse recognize antigen presenting cells, MC38, that present the ovalbumin derived peptide […]. Recognition of the cognate antigen initiates the cytolytic activity of the OT-1 antigen-specific CD8+ T cells.
Functional CTL cells were generated as follows: OT-1 splenocytes from 8-12 week old mice were isolated and expanded in the presence of the […] peptide at 1 μg/mL and mIL2 at 10 U/mL. After three days, fresh media with mIL2 U/mL was added. On day 5 of the expansion, the CD8+ T cells were isolated and ready for use. Activated CTL cells may be stored frozen for 6 months. […] The cells were washed (3×) with fresh media to remove excess peptide. Finally, CTL cells that were pretreated with DGK inhibitors for 1 hour in a 96-well U bottom plate were combined with the antigen loaded MC38 tumor cells at a 1:10 ratio. The cells were then spun at 700 rpm for 5 min and placed in an incubator overnight at 37° C. After 24 hours, the supernatant was collected for analysis of IFN-γ cytokine levels by AlphaLisa purchased from Perkin Elmer.

A further experiment relates to naïve human CD8 T cells. In words: cells. The settings on record: T-cell, read-out: HuCD8 INFG Normalized EC50, anti-CD3 plus anti-CD28 as baseline, 3 μM Example 40 co-stimulation as 100% activation. Here is the method: Frozen naïve human CD8 T cells were thawed in ATM-V media, incubated for 2 h in 37° C., and counted. The 384-well tissue culture plate was coated overnight at 4° C. with 20 μl anti-human CD3 at 0.05 μg/mL in PBS, which was removed off the plate before 40,000 cells per 40 microliters CD8 T cells with 0.1 μg/mL soluble anti-human CD28 were added to each well. The compounds were transferred using an Echo liquid handler to the cell plate immediately after the cells were plated. After 20 h incubation at 37° C. incubator, 3 microliters per well supernatants transferred into a new 384-well white assay plate for cytokine measurement.
Interferon-γ (IFN-γ) was quantitated using the AlphaLISA kit (Cat #AL217) as described by the manufacturer manual (Perkin Elmer). The counts from each well were converted to IFN-γ concentration […].

Consider `COc1ccc(CN2CCN(c3c(C#N)c(=O)n(C)c4ccc(Cl)nc34)CC2)c(O)c1` [Example 301, 6-chloro-4-{4-[(2-hydroxy-4-methoxyphenyl)methyl]piperazin-1-yl}-1-methyl-2-oxo-1,2-dihydro-1,5-naphthyridine-3-carbonitrile], for which the IC50 was 68 nM at human DGKα [1] (detergent/lipid micelle substrate, read-out: DGKα IC50) and 170 nM in experiment [2].

Regarding `Cn1c(=O)c(C#N)c(N2CCN(Cc3ccc(OC(F)(F)F)cc3O)CC2)c2nc(Cl)ccc21` [Example 381, 6-chloro-4-(4-{[2-hydroxy-4-(trifluoromethoxy)phenyl]methyl}piperazin-1-yl)-1-methyl-2-oxo-1,2-dihydro-1,5-naphthyridine-3-carbonitrile], the IC50 on human DGKα [3] came out at 73 nM; against human DGKα [1] (DGKα IC50, detergent/lipid micelle substrate) it was 18 nM; in experiment [4], 190 nM; in experiment [5], 700 nM. In addition, the EC50 in the experiment with naïve human CD8 T cells worked out at 70 nM.

The IC50 is the midpoint of a concentration-inhibition curve. In general, EC50 refers to the midpoint of the concentration-response curve.
